Values of other authors in patent US11173146B2, “Selective activators of the intermediate conductance CA2+activated K+ channel KCa3.1 and their methods of use” (The Regents of the University of California, priority 2014, dated 2021).

System: voltage-gated sodium (NaV) channels
Conditions: literature; cited from earlier work

Structure (SMILES): Nc1nc2c(ccc3ccccc32)s1 [SKA-31, naphtho[1,2-d]thiazol-2-ylamine]
- concentrations that inhibit/affect NaV channels: ≥ 25 µM
